## scFv variants of Ab-14 (light chain) against a SARS-CoV-2 spike peptide

Reference: Li et al. 2023, doi:10.1038/s41467-023-39022-2. File: FLAb, binding data.

The target is the same throughout: PDVDLGDISGINAS, from the HR2 region of SARS-CoV-2 spike.

Ab-14 is the parent antibody, in scFv form: VH, then three GGGGS repeats, then VL. The heavy chain is unchanged in all variants.
VH: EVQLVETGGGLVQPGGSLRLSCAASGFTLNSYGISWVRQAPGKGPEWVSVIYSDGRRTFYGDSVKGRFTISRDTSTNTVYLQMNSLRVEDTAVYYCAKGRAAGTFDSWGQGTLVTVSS
VL: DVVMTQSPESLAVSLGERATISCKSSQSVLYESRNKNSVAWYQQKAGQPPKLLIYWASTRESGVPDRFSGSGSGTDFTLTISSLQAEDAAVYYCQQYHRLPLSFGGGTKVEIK

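The variants were designed computationally from a first round of random CDR variants and then made and measured. Group labels follow the data file (Ctrl: baseline library sampled from a position-specific scoring matrix, with some repeated check sequences; Rand: our label for a block that the file lists under HC and that is probably the random mutants of the ten best first-round binders; GP: Gaussian process model; GPLM: also part of the Gaussian process libraries; HC: hill climbing; Gen: genetic algorithm; Gibbs: Gibbs sampling; a sequence that several methods proposed may carry one label only). The scFvs were displayed on barcoded MATa yeast, the peptide on MATalpha yeast. Mating (16 h, 30 °C) was followed by selection of diploids and sequencing of their barcodes. Scores were corrected for input abundance and mapped to Kd with protein pairs of known affinity run in the same pool. Each pool was mated in six replicate cultures.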

Positions count from residue 1 of the parent VL; S33T puts T in place of S.
Variants here have at most six changes.
Values are apparent Kd, the geometric mean of the replicates that gave a signal; lower means stronger binding.
An entry "no signal" has no value in the source: the pair was not observed among the diploids in any replicate. This suggests poor binding but is not conclusive.
The authors' rule: three or more of the six replicates give a measured affinity, fewer mean a poor binder.

| changes | group | apparent Kd | replicates with signal | signal with controls |
|---|---|---|---|---|
| S33T/Y97M | Ctrl | 37 nM | 1 of 6 | 0 of 18 |
| S25L/N35A/W56N/E61L | GP_Gen | 870 pM | 6 of 6 | 1 of 18 |
| S25I/W56N/T59Q | GP_Gen | 650 pM | 6 of 6 | 1 of 18 |
| K24M/S28A/Y31N/S62A | Ctrl | no signal | 0 of 6 | 0 of 18 |
| S25W/V29W/W56N/T59Q | GP_Gen | 3.0 nM | 6 of 6 | 2 of 18 |
| S25Q/V29G/W56D/S103D | GP_HC | 3.7 nM | 6 of 6 | 0 of 18 |
| Y31K/W56D | Ctrl | 2.2 nM | 6 of 6 | 0 of 18 |
| S26F/S28I/N35L | Ctrl | no signal | 0 of 6 | 0 of 18 |
| S25H/N35T/V39W/W56N/T59S/Q95T | Rand | no signal | 0 of 6 | 0 of 18 |
| T59W | Ctrl | no signal | 0 of 6 | 0 of 18 |
| S25T/R34Q/Q96R | Ctrl | 12 nM | 5 of 6 | 1 of 18 |
| S25V/S28G/Y31D | GP_Gibbs | 4.9 nM | 6 of 6 | 3 of 18 |
| P101T | Ctrl | no signal | 0 of 6 | 0 of 18 |
| S25V/V29N/K36A/S38N/W56N/T59L | GP_Gibbs | 390 pM | 6 of 6 | 0 of 18 |
| S25L/W56N/S62T | GP_Gen | 510 pM | 6 of 6 | 1 of 18 |
| S25L/V29Q/W56N/S62Q | GP_Gen | 2.1 nM | 6 of 6 | 0 of 18 |
| K36H/T59E/S62V | Ctrl | 36 nM | 6 of 6 | 0 of 18 |
| Q27I/Y31K/A57E/S58T/S62Q/Q96A | Ctrl | no signal | 0 of 6 | 0 of 18 |
| S25L/V29E/W56N/S62L | GP_Gen | 190 pM | 6 of 6 | 0 of 18 |
| S26L/W56H/S62D/Y97W | Rand | no signal | 0 of 6 | 0 of 18 |
| Y31H/K36D/S62P/H98C | Ctrl | 53 nM | 3 of 6 | 0 of 18 |
| V29S/L30A/W56Y/H98A | Ctrl | 2.1 nM | 6 of 6 | 0 of 18 |
| S25L/S26M/V29G/W56N | GP_Gen | 3.3 nM | 6 of 6 | 1 of 18 |
| S25F/K36N/S62R | Ctrl | 16 nM | 6 of 6 | 5 of 18 |
| S25Q/V29T/R34V/W56D | GP_HC | 1.3 nM | 6 of 6 | 0 of 18 |
| S25L/Q27W/V29D/W56G | GP_Gen | 590 pM | 6 of 6 | 1 of 18 |
| S26P/W56S | Ctrl | 22 nM | 6 of 6 | 1 of 18 |
| L30D/Y31M/K36A/W56D | GP_HC | 1.2 nM | 6 of 6 | 0 of 18 |
| S25I/Q96M | Ctrl | 34 nM | 6 of 6 | 0 of 18 |
| V29W/W56G/T59N | GPLM_HC | 1.0 nM | 6 of 6 | 3 of 18 |
| S25L/W56N/E61C/S62W | GP_Gen | 810 pM | 6 of 6 | 1 of 18 |
| S25L/V29E/K36S/W56N/T59Q | GP_Gen | 1.8 nM | 6 of 6 | 1 of 18 |
| S25I/W56Q | Ctrl | 580 pM | 6 of 6 | 4 of 18 |
| S25L/S26R/V29Q/W56L | GP_HC | 4.0 nM | 6 of 6 | 0 of 18 |
| K24H/S25F/Q27P/W56N | GP_HC | 590 pM | 6 of 6 | 1 of 18 |
| S25L/S28Q/W56G | GP_Gen | 910 pM | 6 of 6 | 1 of 18 |
| S25L/V29T | GPLM_HC | 580 nM | 3 of 6 | 0 of 18 |
| W56E/Q96T/H98S | Ctrl | 6.1 nM | 6 of 6 | 0 of 18 |
| S25V/S26E/V29M/W56N/T59Q | GP_Gen | 900 pM | 6 of 6 | 1 of 18 |
| S25L/Q27F/S28G/L30D/W56G/Q96A | GP_Gibbs | 2.6 nM | 6 of 6 | 3 of 18 |
| S25V/Q27I/V29Y/Y31L/W56E/S62R | GP_HC | 1.8 nM | 6 of 6 | 0 of 18 |
| S25F/V29Q/W56D/T59Q | GP_Gen | 1.4 nM | 6 of 6 | 2 of 18 |
| S25Q/S26G/L30S/S62V/H98I | Ctrl | no signal | 0 of 6 | 0 of 18 |
| S25V/N35V/W56N/Y97M | GP_HC | 3.5 nM | 6 of 6 | 0 of 18 |
| K36D/W56D | Ctrl | 1.4 nM | 6 of 6 | 2 of 18 |
| S25I/V29M/L30E/K36V/W56N/S62V | GP_Gibbs | 940 pM | 6 of 6 | 1 of 18 |
| S25L/Q27M/V29F/W56G | GP_HC | 1.0 nM | 6 of 6 | 1 of 18 |
| S25L/S26M/W56N/T59L/S62D | GP_HC | 1.6 nM | 6 of 6 | 1 of 18 |
| S25L/N35L/W56N/T59Q | GP_Gen | 1.1 nM | 6 of 6 | 1 of 18 |
| S25L/V29W/W56H/E61L | GP_Gen | 9.5 nM | 6 of 6 | 0 of 18 |
| V29W/W56N/S62N | GP_HC | 430 pM | 6 of 6 | 1 of 18 |
| S25Q/V29E/Y31F/W56D | GP_HC | 760 pM | 6 of 6 | 1 of 18 |
| S26L/L30G/S33Q/W56H/S62D | GP_HC | 3.3 nM | 6 of 6 | 0 of 18 |
| S25L/S33Q/W56E/S62V | GP_Gen | 610 pM | 6 of 6 | 2 of 18 |
| S25V/S26Q/V29E/W56E | GP_Gen | 5.3 nM | 6 of 6 | 0 of 18 |
| S25I/S33H/Y97I | Ctrl | 24 nM | 1 of 6 | 0 of 18 |
| V29H/S33N/R34V/W56M/Q96A | Ctrl | 7.8 nM | 6 of 6 | 0 of 18 |
| S25L/N35A/W56G/T59Q | GP_Gen | 410 pM | 6 of 6 | 2 of 18 |
| W56N/R99M | Ctrl | 4.6 nM | 6 of 6 | 0 of 18 |
| S26L/V29Q/W56H/S62Q | GP_HC | 2.5 nM | 6 of 6 | 0 of 18 |
| S25L/S26P/V29Q/W56D | GP_Gen | 450 pM | 6 of 6 | 1 of 18 |
| S25V/Q27P/V29H/W56E | GP_Gen | 2.2 nM | 6 of 6 | 0 of 18 |
| W56G/Q95L | Ctrl | 2.5 nM | 6 of 6 | 1 of 18 |
| S25L/S26Q/V29W/W56S | GP_Gen | 1.0 nM | 6 of 6 | 1 of 18 |
| S25L/V29W/W56N/S62E | GP_Gen | 640 pM | 6 of 6 | 2 of 18 |
| L30T/R34N/A57D/E61P/P101H/S103K | Ctrl | no signal | 0 of 6 | 0 of 18 |
| S25L/L30E/W56N/T59Q/S62Q | GP_Gen | 950 pM | 6 of 6 | 0 of 18 |
| S25L/S26E/V29N/W56N/T59Q | GP_Gen | 420 pM | 6 of 6 | 0 of 18 |
| S25I/R34S/W56S/T59S | Ctrl | 1.3 nM | 6 of 6 | 1 of 18 |
| S28H/L30G/S62F | Ctrl | 170 nM | 5 of 6 | 2 of 18 |
| S26L/S28G/V29W/W56H/S62Q | GP_HC | 3.3 nM | 6 of 6 | 1 of 18 |
| S25L/W56N/S62E/S103M | GP_Gen | 1.1 nM | 6 of 6 | 1 of 18 |
| S25L/S33D/S38A/W56N/T59Q | GP_Gen | 900 pM | 6 of 6 | 1 of 18 |
| Q27P/V29Y/W56A | GP_HC | 2.7 nM | 6 of 6 | 0 of 18 |
| K24H/S25L/Q27P/L30A/W56N | GP_HC | 680 pM | 6 of 6 | 2 of 18 |
| K24H/S26Q/L30P/W56N/T59L/E61F | GP_Gibbs | 6.7 nM | 6 of 6 | 1 of 18 |
| S25M/S26P/V29E/W56N | GP_Gen | 440 pM | 6 of 6 | 1 of 18 |

For reference, 4 entries of the list once more:

| changes | group | apparent Kd | replicates with signal | signal with controls |
|---|---|---|---|---|
| S25V/Q27I/V29Y/Y31L/W56E/S62R | GP_HC | 1.8 nM | 6 of 6 | 0 of 18 |
| K24H/S25F/Q27P/W56N | GP_HC | 590 pM | 6 of 6 | 1 of 18 |
| S25Q/S26G/L30S/S62V/H98I | Ctrl | no signal | 0 of 6 | 0 of 18 |
| S25L/S26M/V29G/W56N | GP_Gen | 3.3 nM | 6 of 6 | 1 of 18 |

Of ten entries with the parent sequence, four were seen in most replicates (averages 2.2 nM to 240 nM), three in one and three in none, so single entries are noisy.
The range of this assay differs from that of the first round, and the authors advise against merging the two.
Empty control strains, which show no peptide, gave a signal in 4% of pairings with all light chain designs; the median was 430 nM and 95% of these signals were weaker than 38 nM. No background was subtracted. The control count says in how many pairings with the empty strains this scFv gave a signal.